Results: ChEMBL document CHEMBL1121956, “Potential antitumor agents. 37. Organophosphorus derivatives of 9-anilinoacridine” (1982)

System: Nucleic Acid
Experiment: […] association constant for DNA binding to poly (dA.dT)
Assay type: nucleic-acid assay

SMILES	Log K
CC(=O)Nc1ccc(Nc2c3ccccc3nc3ccccc23)cc1	6.3
COC(=O)Nc1ccc(Nc2c3ccccc3nc3ccccc23)cc1	6.36
CS(=O)(=O)Nc1cccc(Nc2c3ccccc3nc3ccccc23)c1	5.73
CNC(=O)Nc1ccc(Nc2c3ccccc3nc3ccccc23)cc1	6.24
